Experimental data from patent US20250134946A1, “SELF-ASSEMBLING AMPHIPHILIC PEPTIDE HYDROGELS FOR TREATMENT OF NERVE INJURY” (GEL4MED, INC., priority 2021, published 2025).

Experiment: Endotoxin levels of different compositions (OD at 410 nm)

For Buffer solution, the Endotoxin level was −0.03694 EU/mL.
